Tests used:
[1] = test system: MOLM-14 D835Y (endogenous FLT3 ITD and transfected FLT3 D835Y); test: MOLM-14 D835Y cell proliferation assay (CellTiter-Glo); details: read-out: MOLM-14 D835Y 3 d-Growth GMean IC50
Source text: (§1) The FLT3 inhibitors may be assessed using the MOLM-14, Acute Myeloid Leukemia cell line that endogenously expresses FLT3 ITD or derivatives of the human FLT3 AML cell line which acquired the D835Y (activation loop) of F691L (gatekeeper) mutation after selection in escalating doses of the FLT3 Inhibitor AC220. FLT3 inhibitors may also be assessed using cells that are engineered to express mutant FLT3. For engineered cells, murine Ba/F3 cells were transfected with full-length FLT3 ITD/D835Y mutations. The parental BA/F3 cells are dependent upon Interleukin-3 (IL-3) for survival, and introduction of the FLT3 constructs rendered these cells dependent upon FLT3 kinase activity when cultured in the absences of IL-3. […] This inhibition is measured as a function of compound concentration to assess IC50 values. […]
(§2) Cells were seeded at 1×10^4 cells per well of a 96 well cell culture plate in 50 μl of cell culture medium. […] The plates were read on a Tecan M1000 using Luminescence protocol modified to read 0.1 s per well. The luminescence reading assesses the ATP content, which correlates directly with cell number such that the reading as a function of compound concentration was used to determine the IC50 value.

Sequences of proteins named here, by UniProt entry; tags and fusion partners are left off. A line that says so, or that is headed by a name, gives the form on record, which may keep a tag or linker.
UniProt P36888, with tags, fused parts or gaps with the stated changes: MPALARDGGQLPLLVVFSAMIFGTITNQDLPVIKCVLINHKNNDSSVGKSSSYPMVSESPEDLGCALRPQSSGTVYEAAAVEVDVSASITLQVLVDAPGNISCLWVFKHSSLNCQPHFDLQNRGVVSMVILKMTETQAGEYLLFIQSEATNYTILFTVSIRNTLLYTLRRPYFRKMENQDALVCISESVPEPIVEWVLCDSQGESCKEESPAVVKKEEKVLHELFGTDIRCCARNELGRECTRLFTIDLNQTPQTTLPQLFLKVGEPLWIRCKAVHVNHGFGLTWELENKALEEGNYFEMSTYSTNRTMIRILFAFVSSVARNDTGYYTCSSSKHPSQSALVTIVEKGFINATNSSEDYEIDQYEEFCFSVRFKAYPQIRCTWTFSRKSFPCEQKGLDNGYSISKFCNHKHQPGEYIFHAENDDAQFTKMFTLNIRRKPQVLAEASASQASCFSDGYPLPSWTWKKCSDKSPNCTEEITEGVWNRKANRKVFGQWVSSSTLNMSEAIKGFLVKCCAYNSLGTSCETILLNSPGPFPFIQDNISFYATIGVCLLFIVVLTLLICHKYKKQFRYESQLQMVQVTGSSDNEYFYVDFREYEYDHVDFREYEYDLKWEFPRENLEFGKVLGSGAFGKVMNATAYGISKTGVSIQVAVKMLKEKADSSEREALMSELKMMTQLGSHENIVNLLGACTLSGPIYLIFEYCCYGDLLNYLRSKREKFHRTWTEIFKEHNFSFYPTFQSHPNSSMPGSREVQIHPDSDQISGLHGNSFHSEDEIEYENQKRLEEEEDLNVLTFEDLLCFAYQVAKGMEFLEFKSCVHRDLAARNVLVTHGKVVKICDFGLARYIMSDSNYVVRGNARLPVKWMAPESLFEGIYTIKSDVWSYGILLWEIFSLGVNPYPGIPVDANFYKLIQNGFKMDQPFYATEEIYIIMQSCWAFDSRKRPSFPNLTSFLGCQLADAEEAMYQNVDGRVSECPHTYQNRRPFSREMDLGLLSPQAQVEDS

[2] = test system: MOLM-14 F691L (endogenous FLT3 ITD and transfected FLT3 F691L); test: MOLM-14 F691L cell proliferation assay (CellTiter-Glo); details: read-out: MOLM-14 F691L 3 d-Growth GMean IC50
Source text: as §1, §2

BA/F3-FLT3-ITD + D835Y = BA/F3-FLT3-ITD + D835Y (Homo sapiens, UniProt P36888, D835Y, cells depend on it, form not given); test: Engineered BA/F3 cell growth assay, FLT3 ITD/D835Y; details: read-out: BaF3_FLT3 ITD/D835Y 3 d-Growth: IC50
Source text: as §1
as §2, with “value. […]” for “value.”

Cn1cc(Nc2ncc(-c3ccc(CC(=O)NCc4cc(Cl)ccc4Cl)cc3)cn2)cn1
0.0001 to 10 µM: IC50 [1] | IC50 [2] | GI50 (BA/F3-FLT3-ITD + D835Y)

From patent publication US10160747B2, “Compounds and methods for kinase modulation, and indications therefor” (Plexxikon Inc., priority 2016, dated 2018)
